# In US8748451B2, “HDAC inhibitors and therapeutic methods of using same” (The Board of Trustees of the University of Illinois, priority 2009, dated 2014):
# Protein sequences, listed by entry. Tags and fused reporters are not part of them. Lines headed by an entry give the natural chain unless they say otherwise; changes in a name come on top.
# UniProt Q96DB2: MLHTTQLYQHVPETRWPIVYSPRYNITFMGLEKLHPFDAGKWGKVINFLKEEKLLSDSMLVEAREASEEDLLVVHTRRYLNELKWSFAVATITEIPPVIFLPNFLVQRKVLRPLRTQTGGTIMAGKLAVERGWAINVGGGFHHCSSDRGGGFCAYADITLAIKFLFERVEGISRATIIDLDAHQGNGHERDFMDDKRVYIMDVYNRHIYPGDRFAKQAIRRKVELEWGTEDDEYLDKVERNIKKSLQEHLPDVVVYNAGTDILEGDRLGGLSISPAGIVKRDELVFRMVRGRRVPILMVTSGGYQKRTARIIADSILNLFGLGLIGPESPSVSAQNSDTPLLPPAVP
# Target: HDAC11 (Homo sapiens (Human), UniProt Q96DB2)
# Assay: HDAC11 inhibition assay
# Format: biochemical
# Conditions: mean of two experiments; read-out: HDAC11 IC50 (μM) ± SD
smiles,measurement,value
O=C(CCCCCCC(=O)Nc1ccc([C@H]2O[C@@H](CSc3nc(-c4ccccc4)c(-c4ccccc4)o3)C[C@@H](c3ccc(CO)cc3)O2)cc1)NO [Tubacin],IC50,3.79 ± 0.1 µM
